Values quoted from earlier work as cited in patent US6538019B1, “Functional emulsions” (Japan as represented by Director of National Food Research …, priority 2000, dated 2003).

Details: cited from earlier work

## catechin
  Solubility with respect to water: slightly soluble in water
